According to US8734849B2, “Multiparticle pharmaceutical dosage form containing a mucoadhesively formulated peptide or protein active substances method for producing said pharmaceutical dosage form” (Evonik Roehm GmbH, priority 2003, dated 2014):

Assay: Solubility in water according to DAB 10
Format: physicochemical
From the text: The solubility in water for the active substance and the substance or substances forming the lipophilic matrix can be defined as specified in DAB 10 (Deutsches Arzneibuch, 10th edition with 3rd supplement 1994, Deutscher Apothekerverlag, Stuttgart und Govi Verlag, Frankfurt/Main, 2nd supplement (1993), IV Allgemeine Vorschriften, pp. 5-6, “Löslichkeit und Lösungsmittel”; see also Ph. Eur. Jul. 4, 2004). The solubility is defined by the number of parts by volume of solvent for 1 part by weight of substance or drug. The definition of “sparingly soluble” includes substances which require from 30 to 100 parts by volume of solvent for 1 part by weight of substance or drug, and the definition of “slightly soluble” includes substances which require from 100 to 1000 parts by volume of solvent for 1 part by weight of substance or drug.

For “beta-Interferon human: slightly soluble protein active substance”, the “solubility in water according to DAB 10” value was “at least 600 parts of water for 1 part of active substance” and the “solubility in water, equivalent” value was 2000 µg/mL.
